{
  "source": "patent US8304182B2",
  "about": "“Methods of identifying anti-cancer agents and uses thereof” (The Trustees of the University of Pennsylvania, priority 2003, dated 2012)",
  "key": {"[1]": {"test_system": "PARP-1 and lamin B1", "assay_type": "cell-based, mouse"}, "[2]": {"test_system": "wild-type MEFs"}, "[3]": {"test_system": "bax^−/−bak^−/− MEFs", "assay_type": "cell-based, mouse"}, "[4]": {"test_system": "Clone HP17 (bax^−/−bak^−/−, shPARP-1) MEFs", "details": "clone HP17 cells, staurosporine, FIG. 3F"}},
  "data": [
    {"smiles": "O=c1[nH]ccc2c(O)cccc12", "note": "[DHIQ]", "values": [
      {"measurement": "apoptotic features of MNNG-treated wild-type cells in presence of PARP inhibitor", "setting": "[1]", "value": "apoptotic features persisted"},
      {"measurement": "block of MNNG-induced cell death", "setting": "[2]", "value": "partially"}
    ]},
    {"smiles": "O=C1NCCc2c(OCCCCN3CCCCC3)cccc21", "note": "[DPQ]", "values": [
      {"measurement": "apoptotic features of MNNG-treated wild-type cells in presence of PARP inhibitor", "setting": "[1]", "value": "apoptotic features persisted"}
    ]},
    {"smiles": "CN[C@@H]1C[C@H]2O[C@@](C)([C@@H]1OC)n1c3ccccc3c3c4c(c5c6ccccc6n2c5c31)C(=O)NC4", "note": "[staurosporine]", "values": [
      {"measurement": "cell death (cell survival by PI exclusion)", "setting": "[2]", "value": "induced cell death"},
      {"measurement": "cell death (cell survival by PI exclusion)", "setting": "[3]", "value": "not in bax^−/−bak^−/− cells"},
      {"measurement": "cell death", "setting": "[4]", "value": "no cell death was observed"}
    ]}
  ]
}
